# Biological target: T1, SMS2 (Homo sapiens, UniProt Q8NHU3)
# T1 construct: CAO, Yu research team, National Protein Scientific Center (Shanghai); supplied by an outside laboratory, not a commercial vendor
# T1 sequence (Q8NHU3 1-365): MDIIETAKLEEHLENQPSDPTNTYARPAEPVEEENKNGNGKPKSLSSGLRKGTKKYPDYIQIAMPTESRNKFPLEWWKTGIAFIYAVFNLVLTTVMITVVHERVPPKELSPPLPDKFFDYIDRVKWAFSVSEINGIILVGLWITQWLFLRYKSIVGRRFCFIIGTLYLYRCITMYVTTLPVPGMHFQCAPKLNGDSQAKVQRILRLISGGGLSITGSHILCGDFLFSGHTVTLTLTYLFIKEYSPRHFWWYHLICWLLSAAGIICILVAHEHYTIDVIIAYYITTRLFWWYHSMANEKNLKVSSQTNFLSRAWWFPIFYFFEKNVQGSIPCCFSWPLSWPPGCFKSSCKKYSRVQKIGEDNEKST
# Test: SMS2 inhibitory activity in vitro, HPLC fluorescence quantitative detection (C6-NBD-ceramide to C6-NBD-SM)
# Assay type: biochemical
# Conditions: for inhibition at 1 µM: read-out: Inhibition rate on SMS2 at C/µM 1
# Source text: • 1. Electro-thermostatic water bath, from Shanghai Yiheng Technology Co., Ltd.); • 2. Vortex Mixer, with model ID of XW-80A, from Shanghai Jingke Industrial Co., Ltd.; • 3. […] High Performance Liquid Chromatography Agilent 1100, equipped with a quaternary pump, vacuum degassing, and FLD fluorescence detector, from Agilent Technologies, Palo Alto, CA, USA; • 5. HPLC column COSMOSIL 5C18-MS-II (4.6mm I.D. X 250mm); • 6. […] The organic solvents used in the present disclosure were purchased from Shanghai National Reagent Company, wherein methanol was pure chromatography; water was ultra-pure water which is filtrated by Milli-Q pump, deionized and ultra-filtrated with 0.22 µm membrane; and other biological consumables were purchased from domestic companies; • 8. Preparation of test compound solutions: each test compound was accurately weighed and dissolved in an appropriate volume of DMSO to prepare a 10 mmol/L stock solution. The stock solution was then diluted with an appropriate volume of DMSO to achieve the desired working concentration; • 9. SMS2 pure enzyme, DDM solution and buffer solution were provided by CAO, Yu research team from National Protein Scientific Center (Shanghai).
# 79 µl of the diluted enzyme solution were transferred into a 1.5 mL EP tube, 1 µl of inhibitor DMSO solution were added thereto, vortexing for 15 seconds, followed by standing at room temperature for 5 minutes. 20 µl of a mixed solution of DMPC and C6-NBD-ceramide were added, vortexing for 15 seconds, and incubated at 37°C for 30 minutes. 200 µl of anhydrous ethanol were added to quench the reaction, vortexing for 15 seconds. 200 µl of the reaction solution were taken out and stored at 4°C and avoided light for HPLC detection.
# The peak area values of A(sm) and A(ceramide) in the HPLC chromatogram corresponding to C6-NBD-SM and C6-NBD-Ceramide in the DMSO group and inhibitor group samples were analyzed and recorded, and the inhibition rate of the test compound was calculated according to the following formula. Inhibition rate = (Peak area values of DMSO group−Peak area values of Inhibitor group)/(Peak area values of DMSO group) × 100% [formula]
Structure (SMILES),inhibition at 1 µM [%],IC50 [nM],inhibition at 10 µM (read-out: Inhibition rate on SMS2 at C/µM 10) [%]
"O=C(Nc1cccnc1)c1sccc1OCc1ccccc1 [1-1, 3-benzyloxy-N-(pyridin-3-yl)thiophene-2-carboxamide]",56,–,–
"O=C(Nc1cccnc1)c1sccc1OCc1cc(F)ccc1Cl [1-2, 3-(2-chloro-5-fluorobenzyloxy)-N-(pyridin-3-yl)thiophene-2-carboxamide]",81,69,–
"CCCCCCOc1ccccc1COc1ccsc1C(=O)Nc1cccnc1 [1-33, 3-(2-(hexyloxy)benzyloxy)-N-(pyridin-3-yl)thiophene-2-carboxamide]",94,–,–
"CCCCCOc1ccccc1COc1ccsc1C(=O)Nc1cccnc1 [1-34, 3-(2-(pentyloxy)benzyloxy)-N-(pyridin-3-yl)thiophene-2-carboxamide]",95,–,–
"CCCCOc1ccccc1COc1ccsc1C(=O)Nc1cccnc1 [1-35, 3-(2-(butoxy)benzyloxy)-N-(pyridin-3-yl)thiophene-2-carboxamide]",91,–,–
"CCCOc1ccccc1COc1ccsc1C(=O)Nc1cccnc1 [1-36, 3-(2-(propoxy)benzyloxy)-N-(pyridin-3-yl)thiophene-2-carboxamide]",85,–,–
"CCOc1ccccc1COc1ccsc1C(=O)Nc1cccnc1 [1-37, 3-(2-(ethoxy)benzyloxy)-N-(pyridin-3-yl)thiophene-2-carboxamide]",89,–,–
"O=C(Nc1cccnc1)c1sccc1OCc1ccccc1Cl [1-47, 3-(2-chlorobenzyloxy)-N-(pyridin-3-yl)thiophene-2-carboxamide]",74,–,–
"O=C(Nc1cccnc1)c1sccc1OCc1cccc(Cl)c1 [1-48, 3-(3-chlorobenzyloxy)-N-(pyridin-3-yl)thiophene-2-carboxamide]",74,–,–
"O=C(Nc1cccnc1)c1sccc1OCc1ccc(Cl)cc1 [1-49, 3-(4-chlorobenzyloxy)-N-(pyridin-3-yl)thiophene-2-carboxamide]",–,–,51
"COc1ccccc1COc1ccsc1C(=O)Nc1cccnc1 [1-57, 3-(2-methoxybenzyloxy)-N-(pyridin-3-yl)thiophene-2-carboxamide]",87,–,–
"O=C(Nc1cccnc1F)c1sccc1OCc1ccccc1 [1-90, 3-benzyloxy-N-(2-fluoropyridin-3-yl)thiophene-2-carboxamide]",56,–,–

# More lines, now with the values ahead:
inhibition at 1 µM [%],IC50 [nM],inhibition at 10 µM (read-out: Inhibition rate on SMS2 at C/µM 10) [%],Structure (SMILES)
96,–,–,"CCCCCCCCCCCCOc1ccccc1COc1ccsc1C(=O)Nc1cccnc1 [1-27, 3-(2-(dodecyloxy)benzyloxy)-N-(pyridin-3-yl)thiophene-2-carboxamide]"
97,–,–,"CCCCCCCCCCCOc1ccccc1COc1ccsc1C(=O)Nc1cccnc1 [1-28, 3-(2-(undecyloxy)benzyloxy)-N-(pyridin-3-yl)thiophene-2-carboxamide]"
95,–,–,"CCCCCCCCCCOc1ccccc1COc1ccsc1C(=O)Nc1cccnc1 [1-29, 3-(2-(decyloxy)benzyloxy)-N-(pyridin-3-yl)thiophene-2-carboxamide]"
95,–,–,"CCCCCCCCCOc1ccccc1COc1ccsc1C(=O)Nc1cccnc1 [1-30, 3-(2-(nonyloxy)benzyloxy)-N-(pyridin-3-yl)thiophene-2-carboxamide]"
96,–,–,"CCCCCCCCOc1ccccc1COc1ccsc1C(=O)Nc1cccnc1 [1-31, 3-(2-(octyloxy)benzyloxy)-N-(pyridin-3-yl)thiophene-2-carboxamide]"
97,–,–,"CCCCCCCOc1ccccc1COc1ccsc1C(=O)Nc1cccnc1 [1-32, 3-(2-(heptyloxy)benzyloxy)-N-(pyridin-3-yl)thiophene-2-carboxamide]"
